Organism: Homo sapiens
Test: Selectivity ratio of relative binding affinity for human ERalpha to relative binding affinity to human ERbeta

Selectivity ratio: 2.84
Structure (SMILES): O=S(=O)(Oc1ccccc1)C1CC2OC1C(c1ccc(O)cc1)=C2c1ccc(O)cc1 (stereo unspecified)

— ChEMBL document CHEMBL5360672, “Identification of Novel Dual-Target Estrogen Receptor α Degraders with Tubulin Inhibitory Activity for the Treatment of Endocrine-Resistant Breast Cancer” (J Med Chem, 2023)
